In US20110294730A1, “METHOD OF TREATING GLAUCOMA AND INTRAOCULAR HYPERTENSION” (priority 2010, published 2011):
Where two headings read alike, the source gives them in different places.

Columns and labels:
[1] = deposited in the conjunctival sac
[2] = local application: balding scalp, eye lid hair line, oral and nasal mucosa, conjunctival sac, up to 3-5 IU to both eyes

Substance: insulin
- absorption from the conjunctival sac [1]: rapidly absorbed
- change of blood sugar (hypoglycemic effects) [2]: did not change the blood sugar
- change of blood sugar (hypoglycemic effects) ([2]; listed as Insulin eye drops): does not change the blood glucose levels
